PTAP TSG101 blk: blocks PTAP/TSG101 interaction to inhibit HIV-1 budding. Fluorescence polarization, FITC-PTAP peptide / Tsg101 binding. Potency, µM (doses to about 115 µM), hits mostly inhibitors. 340,000 tested, under 10 active; active means well fitted inhibition curve with a large enough effect in the main read-out, with a control signal flat, not every such curve was filed as active; inconclusive means small, poorly fitted or top-dose-only effect, or effect the other way, or a change in a side signal; inactive means no such curve, though single readings can be large or run the other way
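Compounds were pin-transferred onto Tsg101 binding domain (10 uM final) in HEPES pH 7.5 buffer, then FITC-PTAP peptide was added at 50 nM final. After 20 min at RT, polarization reported peptide displacement across a qHTS concentration series.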
A549 tox: counter-screen for Nrf2 inhibitors: cytotoxicity in A549 cells; 390,000 tested, 0.16% active; Potency, µM (doses to about 46 µM), most hits filed as inhibitors; AID 504648; A549 ARE-Fluc cells, CellTiter-Fluor viability, 18-24 h
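A549 ARE_Fluc cells in 5% FBS OPTI-MEM were exposed to compounds in concentration-response for 18-24 h at 37 deg C. Viability was read by CellTiter-Fluor fluorescence (Ex 405/Em 525) after 30 min, before the luciferase read.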
Nrf2 block: Nrf2 pathway inhibition; A549 ARE-Fluc reporter, luciferase luminescence, 18-24 h; Potency, µM (titrated, usually from 46 µM), actives largely listed as inhibitors; 360,000 tested, 2.1% active; AID 504444; further: nearly all actives have a fitted effect of over 60% in size
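Cells were seeded and rested 2 h, then exposed to compounds for 18-24 h. CellTiter-Fluor was read first as a viability measure. BugLite was added 15 min before the final luminescent read of ARE-luciferase activity in A549 cells.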
miR-21 FLuc: raises the signal of a miR-21 reporter | HeLa miR-21 FLuc reporter, luciferase, 48 h | Potency, µM (doses to about 38.3 µM) | 340,000 tested, under 10 active | AID 2288; active = well fitted rising curve with a large enough effect; inconclusive = small, poorly fitted or top-dose-only effect; inactive = no such curve, though single readings can be large or run the other way;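 note: miR-21 action dims this reporter so a rising signal means less miR-21 action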
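Luminescence from a firefly luciferase reporter carrying a miR-21 binding site downstream, stably expressed under a CMV promoter in HeLa cells that make miR-21 endogenously, reports miRNA modulation after 48 h compound exposure up to approximately 40uM final.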
Nrf2 activator: activators of Nrf2 (ARE) signaling. AREc32 ARE-luciferase reporter (MCF7-derived line), luminescence, 24 h. 410,000 tested, 0.31% active. Potency, µM (top dose mostly 46.1 µM), hits mostly activators; further: nearly all actives have a fitted effect of over 65% in size
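Reporter line AREc32 (ARE-Fluc), seeded overnight in OPTI-MEM with 5% FBS; compound pin-transferred, 24 hr at 37 deg C, 5% CO2; luminescent read-out.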
GRP78 ERSR act: inducers of ER stress response in human glioma cells; U87-MG GRP78 promoter luciferase reporter, 16 h; Potency, µM, hits mostly activators; 420,000 tested, 0.02% active; AID 602332; further: series mostly up to about 76 µM; nearly all actives have a fitted effect of over 35% in size
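ERSR induction read as luciferase luminescence (Bright-Glo, 10 min at room temperature) in stably transfected human U87-MG glioma cells exposed to compounds for 16 h, using GRP78 as sensor.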
Hits are given with their value; – = inactive; ? = inconclusive; · = not tested or not shown; [ ] = dose if it differs, or a comment. Hits are enriched below; roughly 2.1% of the tested compounds scored in any of these assays. Unless noted, the call rests on the fitted dose curve; in most records, active means well fitted curve in the direction sought with a large enough effect; inconclusive means small, poorly fitted or top-dose-only effect, or another doubt; inactive means no such curve, though single readings can be large; an effect the other way counts as inactive or inconclusive.

SMILES | PTAP TSG101 blk | A549 tox | Nrf2 block | miR-21 FLuc | Nrf2 activator | GRP78 ERSR act
Cc1ccc(CNC(=O)c2cnn(-c3cccc(C)c3)c2C2CCN(C(=O)OC(C)(C)C)CC2)cc1 | · | – | 18µM | ? | – | –
Cc1ccc(CNC(=O)c2cnn(-c3ccc(F)cc3F)c2C2CCN(C(=O)OC(C)(C)C)CC2)cc1 | · | ? | 16µM | ? | – | –
O=C(NCCc1cccs1)c1ccc(Cn2c(SCc3ccc(F)cc3)nc3cccnc32)cc1 | · | ? | 18µM | – | – | –
COc1ccc(Cn2c(SCc3ccc(C(=O)NC4CCCCC4)cc3)nc3cccnc32)cc1 | · | ? | 18µM | – | – | –
O=C(NC1CCCCC1)c1ccc(CSc2nc3cccnc3n2Cc2ccc(F)cc2)cc1 | · | – | – | – | – | –
O=C(NCc1cccs1)c1ccc(Cn2c(SCc3ccccc3)nc3cccnc32)cc1 | · | ? | 26µM | – | – | –
Cc1ccc(S(=O)(=O)CCC(=O)N2CCN(c3ccc([N+](=O)[O-])cc3)CC2)cc1 | – | – | 21µM | – | – | –
CC1(C(=O)N2CCN(c3ccccc3)CC2)CC1(Cl)Cl (configuration not stated) | – | – | – | – | – | –
CC1(C(=O)N2CCN(c3ccc([N+](=O)[O-])cc3)CC2)CC1(Cl)Cl (configuration not stated) | – | – | 18µM | – | – | –
COC(=O)c1ccccc1NC(=O)COc1ccccc1C(=O)Nc1ccccc1 | · | · | · | · | · | –
Nc1nnc(-c2cccc([N+](=O)[O-])c2)o1 | – | – | – | – | – | –
O=[N+]([O-])c1cccc(-c2nnc(-c3ccccc3F)o2)c1 | – | – | ? | – | 13µM | –
CN(Cc1ccccc1)/[N+]([O-])=N/Oc1ccc([N+](=O)[O-])cc1[N+](=O)[O-] | · | · | · | · | · | –
Cc1ccccc1CS(=O)(=O)c1cnc2ccccc2n1 | – | – | – | – | 8.9µM | –
Cc1ccccc1CS(=O)(=O)c1snnc1C | – | · | ? | – | – | –
O=C(COc1ccccc1C(=O)OCC(=O)Nc1cccc2ccccc12)Nc1ccc(Br)cc1 | · | · | · | · | · | –
O=C(CSc1nc2ccc([N+](=O)[O-])cc2s1)NCC1CCCO1 (configuration not stated) | – | – | ? | – | – | –
CC(C)(C)c1ccc(C(=O)Nc2nnc(SCC(=O)NCC3CCCO3)s2)cc1 (configuration not stated) | – | – | 10µM | – | – | –
O=C(CSc1nc2cc(Cl)ccc2s1)NCC1CCCO1 (configuration not stated) | – | – | 12µM | · | – | –
COc1ccc(C2SCC(=O)N2CCc2ccc(OC)c(OC)c2)cc1 (configuration not stated) | – | – | 23µM | – | – | –
O=C1N/C(=C\c2nc3ccccc3s2)c2ccccc21 | · | · | · | – | · | ·
O=C1N/C(=C\c2ccccc2)c2ccccc21 | – | –[1.84 µM] | ? | – | 8.9µM | –
CN1C[C@H]2c3ccccc3Oc3ccc(Cl)cc3[C@@H]2C1 | · | · | · | · | · | –
O=C(CCC1N=C2c3ccccc3N=C(SCc3ccccc3Cl)N2C1=O)NCc1ccco1 (configuration not stated) | – | ? | 18µM | – | – | –
O=C(CCC1N=C2c3ccccc3N=C(SCc3cccc(Cl)c3)N2C1=O)NCc1ccco1 (configuration not stated) | – | – | – | – | – | –
SMILES | PTAP TSG101 blk | A549 tox | Nrf2 block | miR-21 FLuc | Nrf2 activator | GRP78 ERSR act
C=CC[n+]1c(-c2ccccc2)csc1NC(C)(C)C | – | – | – | – | – | –
C=CC[n+]1c(-c2ccc(OC)c(OC)c2)csc1NNC(=O)Nc1ccccc1 | – | ? | 13µM | – | – | –
COc1ccccc1Oc1ccc2c(c1)C(=O)N(c1cccc3ncccc13)C2=O | – | – | 16µM | – | – | –
COc1ccccc1Oc1ccc2c(c1)C(=O)N(c1cccc(O)c1)C2=O | – | – | – | – | – | –
CC(=O)Oc1ccccc1-c1nc(/C=C/c2ccccc2)no1 | – | – | ? | – | 11µM | –
COc1ccc(/C=C/c2noc(-c3ccccc3O)n2)cc1 | – | – | ? | – | – | –
CCOC(=O)c1ccc(N2C(=O)c3n[nH]c(-c4ccco4)c3C2c2ccccc2OC)cc1 (configuration not stated) | · | – | 26µM | ? | – | –
CCOC(=O)c1ccc(N2C(=O)c3n[nH]c(C)c3C2c2ccccc2OC)cc1 (configuration not stated) | · | – | 8.2µM | – | – | –
O=C(c1ccc2c(c1)OCO2)N(Cc1cc2ccc(F)cc2nc1N1CCC(O)CC1)CC1CCCO1 (configuration not stated) | · | · | · | · | · | –
COCCn1c(C)cc(C(=O)CSc2n[nH]c(N)n2)c1C | – | – | – | – | – | –
COCCn1c(C)cc(C(=O)CSc2nnc(C)s2)c1C | – | – | 15µM | ? | – | –
CCCc1cc(-c2n[nH]c(C(=O)OCC)c2-c2cscn2)c(O)cc1O | – | – | 29µM | – | – | –
Oc1ccc2ccccc2c1N=Nc1ccccc1F | – | – | – | – | 3.5µM | –
Oc1ccc2ccccc2c1N=Nc1ccccn1 | – | ? | ? | – | ? | –
COC(=O)[C@@H]1CCCN1S(=O)(=O)Cc1ccccc1 | · | · | · | · | · | –
O=C(c1ccco1)N(Cc1cc2cc3c(cc2nc1N1CCOCC1)CCC3)CC1CCCO1 (configuration not stated) | · | · | · | · | · | –
Cc1ccc(C)c(-n2[nH]c3c4c(ccc3c2=O)C(=O)c2ccccc2C4=O)c1 | – | ? | 23µM | – | – | –
O=C(Nc1cccnc1)c1cnn2c(C(F)F)cc(C3CC3)nc12 | – | – | · | – | – | –
O=C(Nc1cc(Br)ccc1O)c1cnn2c(C(F)F)cc(C3CC3)nc12 | – | – | – | – | 2.5µM | –
CCCC(=O)C1=C(O)C(c2cccc(Oc3ccccc3)c2)CCC1=O (configuration not stated) | – | ? | 18µM | – | – | –
COCc1c(C(=O)N2CCN(C3CCCCC3)CC2)cnn1-c1ncc(C)c(-c2cccs2)n1 | · | · | · | · | · | –
COc1ccccc1C(=O)NC(=S)Nc1ccc(N2CCN(C(=O)c3ccco3)CC2)cc1 | – | – | 21µM | – | – | –
Cc1ccccc1C(=O)N1CCN(c2ccc(NC(=S)NC(=O)c3ccco3)cc2)CC1 | – | – | ? | – | – | –
O=C(Nc1ccc(N2CCN(C(=O)c3ccco3)CC2)cc1)c1cc(Br)ccc1Cl | – | – | 23µM | · | – | –
O=C(Nc1ccc(N2CCN(C(=O)c3ccco3)CC2)cc1)c1ccc(Br)cc1 | – | – | 16µM | – | – | –
